In assay [1] the target is Serotonin receptor 2a and 2b (5HT2A and 5HT2B) (Rattus norvegicus) (UniProt P30994+P14842). In words: Relative binding to serotonin receptors 5-HT-2B and 5-HT-2A (Ratio of […] Ki). Type of assay: protein assay.
Assay [2] is filed under the species Rattus norvegicus. In words: Relative binding to serotonin receptors 5-HT-2B to 5-HT2C (Ratio of […] Ki).

By UniProt entry, the sequences of proteins in these tests, tags left out.
UniProt P30994, whole entry, looked up: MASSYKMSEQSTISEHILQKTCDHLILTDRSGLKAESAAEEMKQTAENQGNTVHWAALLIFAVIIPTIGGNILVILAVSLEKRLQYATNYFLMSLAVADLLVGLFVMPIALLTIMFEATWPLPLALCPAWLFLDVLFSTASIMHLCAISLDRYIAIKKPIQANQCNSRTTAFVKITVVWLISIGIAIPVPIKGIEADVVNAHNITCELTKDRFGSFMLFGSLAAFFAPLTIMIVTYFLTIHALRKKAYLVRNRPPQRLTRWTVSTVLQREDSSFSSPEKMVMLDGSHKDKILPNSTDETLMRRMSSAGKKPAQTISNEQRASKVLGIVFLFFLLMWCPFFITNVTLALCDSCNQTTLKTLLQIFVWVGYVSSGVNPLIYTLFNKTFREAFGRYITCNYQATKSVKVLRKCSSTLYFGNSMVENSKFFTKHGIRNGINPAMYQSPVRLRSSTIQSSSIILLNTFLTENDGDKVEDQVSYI
UniProt P14842, whole entry, looked up: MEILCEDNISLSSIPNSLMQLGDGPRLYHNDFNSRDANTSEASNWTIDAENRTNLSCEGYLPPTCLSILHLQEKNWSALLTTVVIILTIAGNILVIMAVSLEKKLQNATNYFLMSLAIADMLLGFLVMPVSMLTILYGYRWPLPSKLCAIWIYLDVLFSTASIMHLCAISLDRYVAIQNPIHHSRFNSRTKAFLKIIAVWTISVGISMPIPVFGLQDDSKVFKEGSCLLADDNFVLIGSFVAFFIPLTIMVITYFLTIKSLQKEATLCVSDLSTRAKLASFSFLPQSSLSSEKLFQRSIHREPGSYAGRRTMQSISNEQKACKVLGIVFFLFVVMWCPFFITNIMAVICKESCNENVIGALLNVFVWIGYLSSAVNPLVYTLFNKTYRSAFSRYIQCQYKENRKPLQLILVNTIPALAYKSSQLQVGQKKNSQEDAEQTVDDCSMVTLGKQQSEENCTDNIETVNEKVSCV

The record followed here is ChEMBL document CHEMBL1129044, “Potent, selective tetrahydro-beta-carboline antagonists of the serotonin 2B (5HT2B) contractile receptor in the rat stomach fundus” (J Med Chem, 1996).

On to `Cn1ccc2cc3c(cc21)CCN3C(=O)Nc1cccnc1`, for which the Ratio in assay [1] is 490; in assay [2], 3.02.
